Legend:
hα2A receptor = hα2A receptor (Homo sapiens, UniProt P08913); test: Radioligand binding experiment for hα2A receptor ([3H]-raulwolscine, CHO cell membranes); details: [3H]-raulwolscine 1 nM, membranes of CHO cells transfected with human α2A receptor
Description: (§1) The interaction of the compounds according to Formula (I) with hα2-receptors and h5-HT-transporters was assessed in in vitro radioligand binding experiments. In general, a low concentration of a radioligand with a high binding affinity for a particular receptor or transporter is incubated with a sample of a tissue preparation enriched in a particular receptor or transporter or with a preparation of cells expressing cloned human receptors in a buffered medium. During the incubation, the radioligand binds to the receptor or transporter. When equilibrium of binding is reached, the receptor bound radioactivity is separated from the non-bound radioactivity, and the receptor- or transporter-bound activity is counted. The interaction of the test compounds with the receptor is assessed in competition binding experiments. […]
(§2) Membranes were thawed and re-homogenized in incubation buffer (glycylglycine 25 mM, pH 8.0). […] Filter-bound radioactivity was determined by scintillation counting in a Topcount (Packard, Meriden, Conn.) and results were expressed as counts per minute (cpm). Non-specific binding was determined in the presence of 1 μM oxymetazoline for hα2A- and hα2B receptors and 1 μM spiroxatrine for hα2C receptors.
(§3) Data from assays in the presence of compound were calculated as a percentage of total binding measured in the absence of test compound. […]

Chains of the proteins cited; added tags and fusions are not shown.
UniProt P08913, whole entry: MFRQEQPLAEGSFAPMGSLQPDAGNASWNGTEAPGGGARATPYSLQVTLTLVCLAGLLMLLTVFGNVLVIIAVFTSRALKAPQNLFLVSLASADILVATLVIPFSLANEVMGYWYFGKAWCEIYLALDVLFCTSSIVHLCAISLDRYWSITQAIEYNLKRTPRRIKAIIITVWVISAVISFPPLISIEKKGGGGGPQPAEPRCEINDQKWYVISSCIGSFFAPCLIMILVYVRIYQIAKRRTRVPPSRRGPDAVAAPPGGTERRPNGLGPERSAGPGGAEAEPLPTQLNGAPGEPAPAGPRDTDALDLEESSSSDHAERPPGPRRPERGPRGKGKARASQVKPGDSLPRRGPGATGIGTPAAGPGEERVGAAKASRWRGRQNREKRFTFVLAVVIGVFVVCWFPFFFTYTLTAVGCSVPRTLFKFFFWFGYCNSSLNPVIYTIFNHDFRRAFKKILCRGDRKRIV
UniProt P18089, whole entry: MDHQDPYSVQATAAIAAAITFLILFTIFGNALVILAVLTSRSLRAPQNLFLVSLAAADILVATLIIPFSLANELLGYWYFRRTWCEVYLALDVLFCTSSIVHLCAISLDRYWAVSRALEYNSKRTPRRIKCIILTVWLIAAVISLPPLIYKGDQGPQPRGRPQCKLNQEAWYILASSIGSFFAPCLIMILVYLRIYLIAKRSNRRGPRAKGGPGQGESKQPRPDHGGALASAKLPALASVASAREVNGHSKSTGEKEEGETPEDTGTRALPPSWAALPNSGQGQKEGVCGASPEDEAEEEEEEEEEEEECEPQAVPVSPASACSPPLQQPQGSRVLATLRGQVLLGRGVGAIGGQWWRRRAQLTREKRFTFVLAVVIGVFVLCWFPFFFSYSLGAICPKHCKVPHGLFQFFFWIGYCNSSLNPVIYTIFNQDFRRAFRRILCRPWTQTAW
UniProt P18825, whole entry: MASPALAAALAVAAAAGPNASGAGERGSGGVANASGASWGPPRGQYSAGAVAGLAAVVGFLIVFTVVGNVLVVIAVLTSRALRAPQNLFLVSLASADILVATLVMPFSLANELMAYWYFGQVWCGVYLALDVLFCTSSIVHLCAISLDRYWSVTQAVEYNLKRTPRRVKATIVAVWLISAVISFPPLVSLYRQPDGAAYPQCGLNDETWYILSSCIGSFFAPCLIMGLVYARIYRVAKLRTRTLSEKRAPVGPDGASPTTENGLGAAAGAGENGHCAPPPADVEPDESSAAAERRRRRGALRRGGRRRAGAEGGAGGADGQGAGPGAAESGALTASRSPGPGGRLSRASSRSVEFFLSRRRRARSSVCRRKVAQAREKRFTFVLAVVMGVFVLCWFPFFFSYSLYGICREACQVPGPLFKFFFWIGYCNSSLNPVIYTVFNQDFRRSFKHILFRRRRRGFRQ
UniProt P31645, whole entry: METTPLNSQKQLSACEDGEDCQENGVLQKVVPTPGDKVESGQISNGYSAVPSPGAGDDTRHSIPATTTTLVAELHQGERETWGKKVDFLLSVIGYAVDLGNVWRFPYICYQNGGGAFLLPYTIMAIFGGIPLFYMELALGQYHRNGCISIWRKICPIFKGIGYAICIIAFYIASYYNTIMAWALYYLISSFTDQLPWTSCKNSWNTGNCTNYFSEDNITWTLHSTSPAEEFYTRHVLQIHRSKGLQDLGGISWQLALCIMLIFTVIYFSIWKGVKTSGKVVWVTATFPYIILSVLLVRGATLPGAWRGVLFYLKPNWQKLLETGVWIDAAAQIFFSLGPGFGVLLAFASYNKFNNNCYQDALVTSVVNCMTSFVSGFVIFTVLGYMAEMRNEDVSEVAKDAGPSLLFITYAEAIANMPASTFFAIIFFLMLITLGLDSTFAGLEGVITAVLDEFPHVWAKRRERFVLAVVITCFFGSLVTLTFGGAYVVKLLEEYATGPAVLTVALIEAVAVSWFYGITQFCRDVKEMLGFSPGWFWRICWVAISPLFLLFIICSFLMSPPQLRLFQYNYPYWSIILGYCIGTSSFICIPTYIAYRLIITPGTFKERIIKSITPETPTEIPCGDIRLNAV

hα2B receptor = hα2B receptor (Homo sapiens, UniProt P18089); test: Radioligand binding experiment for hα2B receptor ([3H]-raulwolscine, CHO cell membranes); details: [3H]-raulwolscine 1 nM, membranes of CHO cells transfected with human α2B receptor
Description: as §1, §2, §3

hα2C receptor = hα2C receptor (Homo sapiens, UniProt P18825); test: Radioligand binding experiment for hα2C receptor ([3H]-raulwolscine, CHO cell membranes); details: [3H]-raulwolscine 1 nM, membranes of CHO cells transfected with human α2C receptor
Description: as §1, §2, §3

h5-HT transporter = h5-HT transporter (Homo sapiens, UniProt P31645); test: Radioligand binding experiment for 5-HT transporter ([3H]paroxetine, human platelet membranes); details: [3H]paroxetine 0.5 nM
Description: as §1
Human platelet membranes (Oceanix Biosciences Corporation, Hanover, Md., USA) were thawed, diluted in buffer (Tris-HCl 50 mM, 120 mM NaCl and 5 mM KCl) and quickly (max 3 s) homogenised with an Ultraturrax homogenizer. […] Filters were rinsed extensively with ice-cold buffer and radioactivity on the filters was counted in a Topcount liquid scintillation counter (Packard, Meriden, Conn.). Data were expressed as cpm. […]
as §3

COc1cc2c(cc1CC1CC1)OCC1C2=NOC1CN1CCN(CC(C)=Cc2ccc(F)cc2)CC1 (stereo not shown)
pIC50 hα2A (hα2A receptor): 7.8
pIC50 hα2B (hα2B receptor): 8.1
pIC50 hα2C (hα2C receptor): 8.2
pIC50 h5HTT (h5-HT transporter): 7.9

Source: patent publication US7465741B2, “C-substituted tricyclic isoxazoline derivatives and their use as anti-depressants” (Janssen Pharmaceutica N.V., priority 2002, dated 2008)
